By UniProt entry, the sequences of proteins in these tests, tags left out.
UniProt O75907, whole entry: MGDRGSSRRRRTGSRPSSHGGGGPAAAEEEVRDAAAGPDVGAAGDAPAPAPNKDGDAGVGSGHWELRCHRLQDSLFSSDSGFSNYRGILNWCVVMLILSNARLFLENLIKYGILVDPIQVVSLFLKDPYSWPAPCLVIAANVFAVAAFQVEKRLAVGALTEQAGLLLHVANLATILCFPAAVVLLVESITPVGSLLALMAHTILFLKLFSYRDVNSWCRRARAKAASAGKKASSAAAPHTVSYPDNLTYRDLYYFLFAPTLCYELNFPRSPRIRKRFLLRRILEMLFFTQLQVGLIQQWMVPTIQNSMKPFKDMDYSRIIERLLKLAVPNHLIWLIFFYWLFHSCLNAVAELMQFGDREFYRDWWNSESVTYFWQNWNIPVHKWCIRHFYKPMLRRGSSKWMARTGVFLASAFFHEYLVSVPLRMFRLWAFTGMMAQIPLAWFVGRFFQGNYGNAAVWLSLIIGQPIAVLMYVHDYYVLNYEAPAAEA

This experiment addresses human DGAT1 (Homo sapiens, UniProt O75907). Briefly: Inhibition of DGAT1 activity, FlashPlate assay with DGAT1 membrane preparations and substrate micelles. The note with it: pIC50 = -logIC50, IC50 values expressed in M. An excerpt: A) Measurement of Inhibition of DGAT1 Activity by the Present Compounds
The inhibiting activity of the present compounds on DGAT1 activity was screened in a single well procedure assay using DGAT1 comprising membrane preparations and DGAT1 substrate comprising micelles and determining formed radio-active triacylglycerol coming in close proximity of a flashplate surface by radio luminescence.
Said assay is described in full detail in WO2006/067071, the content of which is incorporated herein by reference.
By DGAT1 activity is meant the transfer of coenzyme A activated fatty acids to the 3-position of 1,2-diacylglycerols, thus forming a triglyceride molecule, by enzyme DGAT1.
human DGAT1 (NM012079.2) was cloned into the pFastBac vector, containing translation start, a FLAG-tag at the N-terminus as described in literature and a viral Kozak sequence (AAX) preceding the ATG to improve expression in insect cells. Expression was done as described in literature (Cases, S., Smith, S. J., Zheng, Y., Myers H. M., Lear, S. R., Sande, E., Novak, S., Collins, C., Welch, C. B., Lusis, A. J., Erickson, S. K. and Farese, R. V. (1998) Proc. Natl. Acad. Sci. USA 95, 13018-13023.) using SF9 cells.
72 h transfected SF9 cells were collected by centrifugation (13000 rpm-15 min-4° C.) and lysed in 2×500 ml lysisbuffer (0.1M Sucrose, 50 mM KCl, 40 mM KH2PO4, 30 mM EDTA pH 7.2. Cells were homogenized by cell disruptor. After centrifugation 1380 rpm-15 min-4° C. (SN discarded), pellet was resuspended in 500 ml lysisbuffer and total cell membranes collected by ultracentrifugation at 34000 rpm(100 000 g) for 60 min (4° C.). The collected membranes were resuspended in lysis buffer, divided in aliquots and stored with 10% glycerol at −80° C. until use.
Add 1 ml dioleoyl-sn-glycerol (10 mg/ml) to 10 ml of L-α-phosphatidylcholine (1 mg/ml) and 10 ml of L-α-phosphatidyl-L-serine (1 mg/ml) in a thick glass recipient. Evaporate under nitrogen and put on ice for 15 minutes. Reconstitute in 10 ml Tris/HCl (10 mM, pH 7.4) by sonication on ice. The sonification process consists of sonification cycles of 10 seconds in the sonification bath followed by 10 seconds cool down on ice and repeating this sonification cycle till a homogeneous solution is obtained (takes about 15 minutes). The thus obtained micelles are stored at −20° C. till later use and contain DAG at a final concentration of 1.61 mM.
c) Substrate mix (for 1 384 well plate=3840 μl) • 612 μl micelles stock (51 μM final) • 16.6 μl oleoylCoA 9.7 mM • 23 μl [^3H]-oleoylCoA (49 Ci/mmol, 500 μCi/ml) • 3188.4 μl Tris pH 7.4, 10 mM
d) Enzyme mix (for 1 384 well plate=3520 μl) (5 μg/ml) • Add 11.73 μl of DGAT membrane stock (1500 μg/ml stock) to 3508 μl assay buffer.
e) Stop mix (for 1 384 well plate=7.68 ml) (250 mM) • Add 384 μl of N-ethylmaleimide (5M) to 3.456 ml DMSO 100%, and further dilute 3.84 ml of said solution with 3.84 ml DMSO 10%.
DGAT activity in membrane preparations was assayed in 50 mM Tris-HCl (pH 7.4), 150 mM MgCl2, 1 mM EDTA and 0.2% BSA, containing 50 μM DAG, 32 μg/ml PC/PS and 8.4 μM [^3H]-oleoylCoA (at a specific activity of 30 nCi/well) in a final volume of 50 μl in 384-well format using the red shifted Basic Image FlashPlate™ (Perkin Elmer Cat.No. SMP400).
In detail, 10 μl enzyme mix and 10 μl substrate mix were added to 30 μl of assay buffer, optionally in the presence of 1 μl DMSO (blank and controls) or 1 μl of the compound to be tested. This reaction mixture was incubated for 120 minutes at 37° C. and the enzymatic reaction stopped by adding 20 μl of the stop mix. The plates were sealed and the vesicles allowed to settle overnight at room temperature. Plates were centrifuged for 5 minutes at 1500 rpm and measured in Leadseeker. […]
Turning to `COc1cccc(CNC(=O)c2ccc(N3CCN(C(=O)Cc4c(Cl)cccc4Cl)CC3)cc2)c1`, the negative-log IC50 (pIC50) (usually the negative decadic logarithm of the IC50, by convention in mol/L) worked out at 7.37.
With `O=C(NCc1cccc(Cl)c1)c1ccc(N2CCN(C(=O)Cc3c(Cl)cccc3Cl)CC2)cc1` the figure was 7.20; with `O=C(CCCC(=O)OCc1ccc(Cl)cc1)Nc1ccc(N2CCN(C(=O)Nc3c(Cl)cc(CN4CCCCC4)cc3Cl)CC2)cc1`, 8.31; with `O=C(NCc1ccc(F)cc1)c1ccc(N2CCN(C(=O)Cc3c(Cl)cccc3Cl)CC2)cc1`, 6.93.
The compound `O=C(CCN(Cc1cccc(Cl)c1)S(=O)(=O)c1ccccc1[N+](=O)[O-])Nc1ccc(N2CCN(C(=O)Nc3c(Cl)cccc3Cl)CC2)cc1` returned a pIC50 of 6.72.
`O=C(CCc1ccccc1)Nc1ccc(N2CCN(C(=O)Nc3c(Cl)cccc3Cl)CC2)cc1`: the pIC50 amounted to 7.82.
In turn, `C#CCN(C)CC(=O)Nc1ccc(C2CCN(C(=O)Nc3c(Cl)cccc3Cl)CC2)cc1` registered a negative logarithm of the IC50 (pIC50) of 6.25.
As for `COc1ccc(C(O)C(=O)N2CCN(c3ccc(NC(=O)CCCc4ccccc4)cc3)CC2)cc1` (stereo not shown), the figure is 5.36.
As for `O=C(CCCc1ccccc1)Nc1ccc(N2CCN(C(=O)C(O)c3c(Cl)cccc3Cl)CC2)cc1` (single isomer, unassigned) [334], the figure is 6.33; as for `CCN(CC)CCC(=O)Nc1ccc(N2CCN(C(=O)Nc3c(Cl)cccc3Cl)CC2)cc1`, 5.20.
As for `COc1ccc(CC(=O)Nc2ccc(N3CCN(C(=O)C(=O)c4c(Cl)cccc4Cl)CC3)cc2)cc1`, the figure is 6.51; as for `COc1ccc(CC(=O)Nc2ccc(N3CCN(C(=O)NCc4ccccc4Cl)CC3)cc2)cc1`, 5.39; as for `O=C(NCc1ccccc1Cl)c1ccc(N2CCN(C(=O)Cc3c(Cl)cccc3Cl)CC2)cc1`, 7.13.
Compound `O=C(CCN(CC1CC1)S(=O)(=O)c1ccccc1[N+](=O)[O-])Nc1ccc(N2CCN(C(=O)Nc3c(Cl)cccc3Cl)CC2)cc1` yielded a pIC50 of 7.68.
`CCOC(=O)CCC(=O)Nc1ccc(N2CCN(C(=O)Nc3c(Cl)cccc3Cl)CC2)cc1` yielded a pIC50 of 7.34.
As for `COCCNCC(=O)Nc1ccc(C2CCN(C(=O)Nc3c(Cl)cccc3Cl)CC2)cc1`, the figure is 6.08; as for `CCCN(C)CC(=O)Nc1ccc(C2CCN(C(=O)Nc3c(Cl)cccc3Cl)CC2)cc1`, 6.13.
For `CNC(C)c1cc(Cl)c(NC(=O)N2CCN(c3ccc(NC(=O)CCCc4ccccc4)cc3)CC2)c(Cl)c1` (single isomer, unassigned) [293], the pIC50 is given as 7.91.
Compound `CN(C)C(=O)CCC(=O)Nc1ccc(C2CCN(C(=O)Nc3c(Cl)cccc3Cl)CC2)cc1` yielded a pIC50 of 5.40.
In turn, `CC(CNC(=O)OC(C)(C)C)C(=O)Nc1ccc(C2CCN(C(=O)Nc3c(Cl)cccc3Cl)CC2)cc1` (stereo not shown) returned a negative logarithm of the IC50 (pIC50) of 7.64.
As for `COc1cc(Cl)c(NC(=O)N2CCN(c3ccc(NC(=O)CNc4ccc(C)cc4C)cc3)CC2)c(OC)c1`, the figure is 7.72.
With `O=C(NCc1ccccn1)c1ccc(N2CCN(C(=O)Cc3c(Cl)cccc3Cl)CC2)cc1` the figure was 5.65; with `CC(C(=O)N1CCN(c2ccc(NC(=O)CCCc3ccccc3)cc2)CC1)c1ccc([N+](=O)[O-])cc1` (stereo not shown), 5.12.
Take `O=C(NCc1ccc(Cl)cc1)c1ccc(N2CCN(C(=O)Cc3c(Cl)cccc3Cl)CC2)cc1`: the negative-log IC50 (pIC50) stood at 6.88.
Compound `Cc1cc([N+](=O)[O-])ccc1NC(=O)N1CCN(c2ccc(NC(=O)CCCc3ccccc3)cc2)CC1` returned a negative-log IC50 (pIC50) of 5.75.
With `CC(C)OCCCNC(=O)c1ccc(N2CCN(C(=O)Cc3c(Cl)cccc3Cl)CC2)cc1` the figure was 6.38; with `O=C(CCCc1ccccc1)Nc1ccc(N2CCN(C(=O)C(O)c3c(Cl)cccc3Cl)CC2)cc1` (single isomer, unassigned) [329], 6.86.
With `CC(=O)N(C)CC(=O)Nc1ccc(N2CCN(C(=O)Nc3c(Cl)cccc3Cl)CC2)cc1` the figure was 6.44.
With `O=C(NCc1cccs1)c1ccc(N2CCN(C(=O)Cc3c(Cl)cccc3Cl)CC2)cc1` the figure was 6.57.
Regarding `COc1ccc(CNC(=O)c2ccc(N3CCN(C(=O)Cc4c(Cl)cccc4Cl)CC3)cc2)cc1`, the pIC50 is recorded as 7.20.
Take `O=C(NCc1ccccc1)c1ccc(N2CCN(C(=O)Nc3c(Cl)cc(CN4CCCC4)cc3Cl)CC2)cc1`: the negative logarithm of the IC50 (pIC50) came out at 6.80.
In turn, `O=C(NCC1CCOCC1)c1ccc(N2CCN(C(=O)Cc3c(Cl)cccc3Cl)CC2)cc1` registered a pIC50 of 5.81.
As for `O=C(CCCc1ccccc1)Nc1ccc(N2CCN(C(=O)C(O)c3ccc(Cl)cc3)CC2)cc1` (stereo not shown), the figure is 5.33; as for `CN(CCC(=O)Nc1ccc(C2CCN(C(=O)Nc3c(Cl)cccc3Cl)CC2)cc1)C(=O)OC(C)(C)C`, 7.58.
The compound `CCN1CCN(Cc2cc(Cl)c(NC(=O)N3CCN(c4ccc(NC(=O)Cc5ccc(OC)cc5)cc4)CC3)c(Cl)c2)CC1` displayed a pIC50 of 8.10.
As for `COc1ccc(CNC(=O)c2ccc(N3CCN(C(=O)Cc4c(Cl)cc(C)nc4Cl)CC3)cc2)cc1`, the figure is 6.50; as for `O=C(CCN(Cc1ccccc1)S(=O)(=O)c1ccccc1[N+](=O)[O-])Nc1ccc(N2CCN(C(=O)Nc3c(Cl)cccc3Cl)CC2)cc1`, 7.64.
With `CC(=O)NCCC(=O)Nc1ccc(C2CCN(C(=O)Nc3c(Cl)cccc3Cl)CC2)cc1` the figure was 5.30; with `O=C(CCCc1ccccc1)Nc1ccc(N2CCN(C(=O)C(O)c3ccc(Br)cc3F)CC2)cc1` (stereo not shown), 6.62; with `O=C(CCCc1ccccc1)Nc1ccc(N2CCN(C(=O)[C@H](O)c3ccccc3Cl)CC2)cc1`, 7.01.
As for `COc1ccc(CC(=O)Nc2ccc(N3CCN(C(=O)Nc4c(Cl)cc(CN5CCN(C(C)=O)CC5)cc4Cl)CC3)cc2)cc1`, the figure is 8.46; as for `CN(C)CCCNC(=O)c1cc(Cl)c(NC(=O)N2CCN(c3ccc(NC(=O)CCCc4ccccc4)cc3)CC2)c(Cl)c1`, 6.88.
`O=C(CCCc1ccccc1)Nc1ccc(N2CCN(C(=O)[C@@H](O)c3ccccc3Cl)CC2)cc1`: the pIC50 was found to be 8.02.
`COCCNCC(=O)Nc1ccc(N2CCN(C(=O)Nc3c(Cl)cccc3Cl)CC2)cc1` returned a pIC50 of 5.49.
Compound `CC(CC(=O)Nc1ccc(C2CCN(C(=O)Nc3c(Cl)cccc3Cl)CC2)cc1)NC(=O)OC(C)(C)C` (stereo not shown) displayed a negative-log IC50 (pIC50) of 7.71.
As for `CNC(C)c1cc(Cl)c(NC(=O)N2CCN(c3ccc(NC(=O)CCCc4ccccc4)cc3)CC2)c(Cl)c1` (single isomer, unassigned) [287], the figure is 8.00.
